From ChEMBL document CHEMBL1128249, “2,4-Diamino-5-substituted-quinazolines as inhibitors of a human dihydrofolate reductase with a site-directed mutation at position 22 and of the dihydrofolate reductases from Pneumocystis carinii and Toxoplasma gondii” (J Med Chem, 1995) come the findings set out here.

The experiment concerns the target T1, Dihydrofolate reductase (Homo sapiens, UniProt P00374).
T1 sequence (P00374 whole entry): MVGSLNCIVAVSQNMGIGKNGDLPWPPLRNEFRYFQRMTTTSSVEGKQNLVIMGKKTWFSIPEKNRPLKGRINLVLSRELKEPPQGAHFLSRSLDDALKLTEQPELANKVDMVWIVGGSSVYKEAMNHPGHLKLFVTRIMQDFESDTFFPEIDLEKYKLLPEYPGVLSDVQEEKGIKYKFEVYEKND
As to the kind of experiment: Inhibitory compound against Wild-type human DHFR.

As to `Nc1nc(N)c2c(/C=C/c3ccccc3)cccc2n1`, the Ki was determined as 5.4 nM.
